Protein sequences, listed by entry. Tags and fused reporters are not part of them. Lines headed by an entry give the natural chain unless they say otherwise; changes in a name come on top.
UniProt O14744: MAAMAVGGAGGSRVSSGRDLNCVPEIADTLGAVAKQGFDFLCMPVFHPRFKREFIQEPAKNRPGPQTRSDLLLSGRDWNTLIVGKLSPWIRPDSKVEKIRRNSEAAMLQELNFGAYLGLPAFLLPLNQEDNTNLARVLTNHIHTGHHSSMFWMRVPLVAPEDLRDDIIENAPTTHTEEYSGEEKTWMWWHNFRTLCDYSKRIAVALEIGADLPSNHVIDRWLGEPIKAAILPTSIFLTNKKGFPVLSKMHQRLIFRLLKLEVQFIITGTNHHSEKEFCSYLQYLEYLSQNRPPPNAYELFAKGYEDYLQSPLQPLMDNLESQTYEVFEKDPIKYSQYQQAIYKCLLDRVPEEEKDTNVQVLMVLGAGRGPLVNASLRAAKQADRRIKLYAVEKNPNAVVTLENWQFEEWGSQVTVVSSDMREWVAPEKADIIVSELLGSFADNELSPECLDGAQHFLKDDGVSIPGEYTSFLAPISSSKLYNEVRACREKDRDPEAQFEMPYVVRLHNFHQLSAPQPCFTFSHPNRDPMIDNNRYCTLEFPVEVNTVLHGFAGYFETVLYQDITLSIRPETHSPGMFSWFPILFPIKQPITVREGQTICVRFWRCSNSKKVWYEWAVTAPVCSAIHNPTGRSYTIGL
UniProt Q9BQA1: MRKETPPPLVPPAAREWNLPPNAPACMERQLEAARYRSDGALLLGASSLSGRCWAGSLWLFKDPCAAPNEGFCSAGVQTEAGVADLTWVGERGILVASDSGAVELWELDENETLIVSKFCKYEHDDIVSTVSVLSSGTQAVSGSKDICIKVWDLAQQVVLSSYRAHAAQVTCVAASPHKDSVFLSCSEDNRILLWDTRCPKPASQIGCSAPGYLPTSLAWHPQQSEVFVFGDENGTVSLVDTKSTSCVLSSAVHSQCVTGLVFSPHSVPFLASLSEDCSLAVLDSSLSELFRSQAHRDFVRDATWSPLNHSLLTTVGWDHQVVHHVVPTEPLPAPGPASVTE

In ChEMBL document CHEMBL6087464, “Design, Synthesis, and Biological Evaluation of 3,4-Dihydroisoquinolin-1(2H)-one Derivatives as Protein Arginine Methyltransferase 5 Inhibitors for the Treatment of Non-Hodgkin's Lymphoma” (J Med Chem, 2025):

Molecular target: PRMT5/MEP50 complex (Homo sapiens, UniProt O14744+Q9BQA1)

CC(=O)N1CC2(CC(Nc3cc4c(cn3)C3(CC3)CN(C[C@H](O)CN3CCc5ccccc5C3)C4=O)C2)C1 was tested, and the Ka was 3.47 10^5/Ms.
